From PMC6058575, “Enhanced anti-hepatocarcinoma efficacy by GLUT1 targeting and cellular microenvironment-responsive PAMAM–camptothecin conjugate” (Drug Delivery, 2017)

Tests used:
[1] = Pharmacokinetic study after intravenous administration; assay type: in vivo; conditions: rats
Description: Twenty-four rats (200 ± 20 g) were randomly divided into four groups and were intravenously administered 1.5 mg/kg doses of CPT, PCC, MPCC, or GPCC. The rats were fasted for 12 h with free access to water before the experiment. Briefly, 0.5 ml of blood was collected in centrifuge tubes at predefined times of 0.083, 0.33, 0.5, 1, 2, 4, 8, 12, and 24 h. Blood samples were centrifuged at 15,000 rpm for 15 min at 4 °C to isolate plasma fractions. Then, 100 μL of methanol was added to the plasma, and the mixture was extracted with 2 mL hexane and 1 mL dichloromethane. The mixture was vortexed for 10 min and centrifuged at 15,000 rpm for 15 min, and the supernatant was collected and dried using a stream of nitrogen gas. The resultant residue was redissolved in 200 μL methanol and stored at −20 °C until further analysis.

[2] = tested on: HepG2 cells; conditions: 24 h, compared among conjugates
[3] = tested on: H22 tumor-bearing mice; assay: In vivo and ex vivo imaging of tumor targeting; conditions: 1 mg/kg CPT i.v.
Description: An H22 tumor-bearing mice model was established based on previously reported method (Li et al., [2014]). Ascitic fluid containing H22 cells was extracted and diluted with PBS (pH 7.0) to 1 × 10^7 cells/ml. The mice (20–22 g) were anesthetized with 5% chloral hydrate and subcutaneously injected with 0.2 ml of cell suspension for armpit tumor implantation. All animal studies were approved by the China Animal Care and Use Committee and carried out according to the Guide for the Care and Use of Laboratory Animals of Beijing University of Chinese Medicine.
Mice were intravenously injected with conjugates at 1 mg/kg CPT concentration. […] Afterward, the tumor-bearing mice were immediately sacrificed by carbon dioxide asphyxiation. Subsequently, major organs (such as tumor, liver, spleen, brain, heart, kidney, and lung) were harvested and visualized.

[4] = tested on: H22 tumor-bearing mice; assay: Toxicity in the efficacy study (body weight, H&E staining); assay type: in vivo; conditions: 1 mg/kg CPT i.v., day 12
Description: The tumor-bearing mice were randomly divided into five groups (10 per group). The control group mice were administered saline. […] Body weights were recorded daily. At day 12, four mice of each group were sacrificed by carbon dioxide asphyxiation. Tumors, livers and spleens were collected and fixed with 10% paraformaldehyde for 48 h. These tissues were cut into […] sections and processed for H&E staining. The remaining […] in each group were also sacrificed, and the tumors were collected and weighed.

[5] = tested on: L02 cells; assay: MTT cytotoxicity; assay type: cell-based; conditions: 24 h
[6] = Particle size by dynamic light scattering (DLS); assay type: physicochemical; conditions: conjugates at 10 mg/ml
Description: The particle sizes and zeta potential of different conjugates at 10 mg/ml were determined using a dynamic light scattering (DLS) particle size analyzer (Nicomp 380 Zeta Potential/Particle Sizer, Santa Barbara, CA). Following staining with 2% sodium phosphotungstate solution, the conjugate morphologies were observed using transmission electron microscopy (TEM) at an accelerating voltage of 100 kV (JEM 1400 JOEL, Akishima City, Tokyo Prefecture, Japan).

[7] = 1.5 mg CPT/kg i.v., two-compartment model

Glucose–PEG–PAMAM-s-s–Camptothecin-Cy7 [GPCC]
AUC(0–t) [1, 7]: 7865 ± 1037 ng·h/mL
AUC(0–∞) [1, 7]: 8250 ± 662 ng·h/mL
CL [1, 7]: 3.05 ± 0.233 mL/min/kg
Cmax [1, 7]: 9132 ± 734 ng/mL
MRT(0–t) [1, 7]: 4.206 ± 0.442 h
MRT(0–∞) [1, 7]: 6.016 ± 2.83 h
V (apparent volume of distribution) [1, 7]: 1.881 ± 1.382 L/kg
t1/2 [1, 7]: 0.28 ± 0.027 h
area under the curve ([1]; 1.5 mg/kg CPT i.v.): 7.87 mg/L*h
area under the curve relative to CPT suspension ([1]; 1.5 mg/kg CPT i.v.): 10.52 fold
area under the curve relative to MPCC conjugate ([1]; 1.5 mg/kg CPT i.v.): 1.68 fold
area under the curve relative to PCC conjugate ([1]; 1.5 mg/kg CPT i.v.): 2.19 fold
mean residence time (MRT) increase compared with CPT suspension ([1]; 1.5 mg/kg CPT i.v.): approximately two-fold
t1/2 increase compared with CPT suspension ([1]; 1.5 mg/kg CPT i.v.): approximately 1.7 fold
maximum plasma drug concentration ([1]; 1.5 mg/kg CPT i.v., 5 min post administration): 9.13 µg/mL
cytotoxicity (inhibition of proliferation) [2]: strongest inhibitory effect
fluorescence intensity in tumor sites relative to MPCC conjugate ([3]; ex vivo imaging, 12 h): five-fold
fluorescence intensity in tumor sites relative to PCC conjugate ([3]; ex vivo imaging, 12 h): approximately 10 fold
time of maximum distribution at tumor sites ([3]; in vivo imaging): 4 h
H&E histology of liver and spleen [4]: limited damage to the liver and spleen
cytotoxicity [5]: lower than that of PCC
particle size (DLS) [6]: 24.0 nm
